Assays:
[1] = target: T1, SaSDH (Staphylococcus aureus shikimate dehydrogenase) (Staphylococcus aureus, UniProt Q5HFG5); test: SaSDH enzyme inhibition; assay type: biochemical
T1 sequence (Q5HFG5 1-268): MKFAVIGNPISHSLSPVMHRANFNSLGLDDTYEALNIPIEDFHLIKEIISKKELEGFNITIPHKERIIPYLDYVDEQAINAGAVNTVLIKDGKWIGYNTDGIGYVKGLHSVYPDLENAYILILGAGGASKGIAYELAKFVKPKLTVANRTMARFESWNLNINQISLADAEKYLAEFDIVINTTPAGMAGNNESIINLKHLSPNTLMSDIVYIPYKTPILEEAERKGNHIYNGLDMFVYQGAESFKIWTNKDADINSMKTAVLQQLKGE

SaSDH = target: T2, SaSDH (Staphylococcus aureus, UniProt Q5HFG5); test: Isothermal titration calorimetry; assay type: binding; conditions: ITC, 100 mM Tris-HCl pH 9.0, 25 °C
T2 sequence (Q5HFG5 1-268): T1 sequence (Q5HFG5 1-268)

## Rhodiosin
[1]; 1 mM NADP, 1 mM SHK, 1.54 ng SaSDH, pH 9.0, 37 °C, 30 min
  IC50: < 100 µM
[1]; Lineweaver-Burke plots, SHK varied 0.25-4 mM
  Ki: 73.4 µM
SaSDH
  Kd: 16.4 µM

— PMC10798293 (Journal of Enzyme Inhibition and Medicinal Chemistry, 2024)
